Measured values published in US20040002079A1, “Sodium-phosphate cotransporter in lithium therapy for the treatment of mental illness” (priority 1998, published 2004).
Blank lines part the entries; values can stand above or below the compound they belong to.

How the values were obtained:
[1] = target: T1, sodium-phosphate cotransporter (Homo sapiens, UniProt Q8WUM9); test: Na-dependent 32PO4 influx into erythroleukemic K562 cells; type: cell-based; set-up: influx into the erythroleukemic line of K562 cells was measured; endogenous in cells; host or cells: K562 erythroleukemic cells
T1 sequence (Q8WUM9 1-679): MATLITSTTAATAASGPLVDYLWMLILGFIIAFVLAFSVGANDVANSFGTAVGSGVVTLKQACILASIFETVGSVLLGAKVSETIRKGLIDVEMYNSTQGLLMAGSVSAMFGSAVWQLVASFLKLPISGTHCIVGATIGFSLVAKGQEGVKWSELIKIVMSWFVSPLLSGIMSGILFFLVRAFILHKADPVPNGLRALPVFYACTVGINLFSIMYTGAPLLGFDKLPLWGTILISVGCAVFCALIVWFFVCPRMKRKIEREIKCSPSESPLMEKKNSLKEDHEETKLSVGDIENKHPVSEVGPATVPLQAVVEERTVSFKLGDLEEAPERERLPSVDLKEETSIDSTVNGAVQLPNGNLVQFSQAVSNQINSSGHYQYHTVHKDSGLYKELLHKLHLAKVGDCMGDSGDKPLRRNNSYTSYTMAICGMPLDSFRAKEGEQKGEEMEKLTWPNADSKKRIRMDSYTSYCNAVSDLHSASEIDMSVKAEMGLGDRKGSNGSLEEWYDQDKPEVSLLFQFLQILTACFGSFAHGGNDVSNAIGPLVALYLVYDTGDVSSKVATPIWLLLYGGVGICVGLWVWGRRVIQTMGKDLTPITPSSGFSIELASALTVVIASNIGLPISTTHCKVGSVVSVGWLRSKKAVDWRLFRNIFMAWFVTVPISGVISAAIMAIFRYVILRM

[2] = target: T1, sodium-phosphate cotransporter; type: cell-based; set-up: influx into the erythroleukemic line of K562 cells was measured; endogenous in cells; host or cells: K562 erythroleukemic cells; settings: 1, 7.5 and 75 mM external sodium
[3] = target: T1, sodium-phosphate cotransporter; settings: external phosphate, with external lithium and 10^-5 M ouabain

Compound: [Cs+] [Cs]
- activation of phosphate influx [1]: no activation

Compound: [Li] [lithium, Lithium]
- phosphate influx relative to that in the presence of 140 mM Na ([1]; 140 mM Li, K562 cells): 18.7%

Compound: [Na+] [sodium]
- K1/2^Na for 32PO4 influx [1]: 40 mM
- activation of 32PO4 influx compared to isomolar N-methyl-D-glucamine [1]: over 100 fold
- effect on lithium activation of phosphate influx [2]: increased

Compound: arsenate
- Ki ([1]; read-out: K1 value for inhibition of Na-dependent 32PO4 influx): 2.6 mM

- Vmax of 32PO4 influx ([1]; pH 7.4 at 37° C., 140 mM Na): 4500 nmol PO4/g protein−min
- Km ([1]; pH 7.4 at 37° C., 140 mM Na, read-out: Km^PO4 for activation of 32PO4 influx by extracellular phosphate): 360 µM
- effect on lithium-stimulated Na efflux [3]: further stimulated
Compound: phosphate
